SMILES strings stand for the structures. “And” between values parts separate entries of the source, which are not always exact repeats. Identical values can stand only once. The list shows a part of the results, in another mix than the full data. The source made the active and inactive calls. Cut-off read from the data, not from the text of the source: active = inhibition above about 16% (passing the limit was not always enough); inactive = the rest.

Chains of the proteins cited; added tags and fusions are not shown. Lines headed by an entry give the natural chain unless they say otherwise; changes in a name come on top.
UniProt P48145: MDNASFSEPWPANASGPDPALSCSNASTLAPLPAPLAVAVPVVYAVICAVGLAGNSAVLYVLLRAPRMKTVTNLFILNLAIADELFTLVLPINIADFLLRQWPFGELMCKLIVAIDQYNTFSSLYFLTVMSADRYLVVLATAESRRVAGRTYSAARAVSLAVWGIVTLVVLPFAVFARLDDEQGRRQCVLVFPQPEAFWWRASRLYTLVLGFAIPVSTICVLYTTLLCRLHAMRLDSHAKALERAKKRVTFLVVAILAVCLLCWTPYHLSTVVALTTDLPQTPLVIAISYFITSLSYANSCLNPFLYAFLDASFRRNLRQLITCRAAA

The assay deals with Neuropeptides B/W receptor type 1 (Homo sapiens) (UniProt P48145). As to the kind of experiment: GPR7 receptor antagonists, primary screen, cell-based, fluorescence, single concentration (AID 1861).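 Note: cells stimulated with the agonist NPW; 0% = agonist with vehicle and 100% = vehicle without agonist.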 The settings on record: GPR7-expressing cells, fluorescence antagonist assay; at 4.4 µM; stronger effect = higher value.
On to `CC(C)(C)C(=O)NC(Sc1ccccc1)C(Cl)(Cl)Cl` (centres undefined), for which the inhibition is inactive: -14.6%.

Take `CCOc1ccc(C2=NCC(CBr)S2)cc1` (centres undefined): the inhibition is inactive: -4.45%.

Take `O=P1(Nc2nc3ccc(Cl)cc3s2)COc2ccccc2O1` (centres undefined): the inhibition was inactive: -3.65%.

For the compound `CC(=O)Nc1ccc(Oc2c([N+](=O)[O-])cc([N+](=O)[O-])cc2[N+](=O)[O-])cc1`, the inhibition is inactive: -12.2%.

On to `CC(=O)Nc1ccc([As](=O)(O)O)c(O)c1`, for which the inhibition was inactive: 3.09%.

With `CC(=O)c1ccc(N2CC2c2ccncc2)cc1` (centres undefined), the inhibition was inactive: 14.5%.

Turning to `Cc1ccc(NP(=O)(Oc2cccc(C)c2)Oc2cccc(C)c2)nc1`, the inhibition was inactive: 19.6%.

In the case of `CCOC(=O)NC(Sc1ccccc1)C(Cl)(Cl)Cl` (centres undefined), the inhibition was inactive: 4.25%.

As to `c1ccc(-c2nn[nH]n2)c(-c2nn[nH]n2)c1`, the inhibition was inactive: -0.14%.

`CCNC(=S)/N=C(\N)N[N+](=O)[O-]`: the inhibition was inactive: -13.9%.

As for `O=C(NC1CCS(=O)(=O)C1)NP(=S)(Oc1ccccc1)Oc1ccccc1` (centres undefined), the inhibition was inactive: -14.4%.

As for `CN(C)C(=O)Oc1noc2ccccc12`, the inhibition was inactive: -8.85%.

For `O=c1c2cc([N+](=O)[O-])ccc2[nH]c2c([N+](=O)[O-])cc([N+](=O)[O-])cc12`, the inhibition is active: 46.1%.

On to `Cc1ccccc1OP(=O)(Nc1ccccn1)Oc1ccccc1C`, for which the inhibition was inactive: -10.1%.

As to `CCC(=O)N1C2C3N(C(=O)CC)C1C1N(C(=O)CC)C(C(N1C(=O)CC)N3C(=O)CC)N2C(=O)CC`, the inhibition is inactive: -3.12%.

On to `O=C(OC1CN2CCC1CC2)c1ccccc1` (centres undefined), for which the inhibition is inactive: 13.3%.

`CC(=O)NC(SC(=S)N(CC(C)C)CC(C)C)C(Cl)(Cl)Cl` (centres undefined): the inhibition was inactive: 3.43%.

With `Cc1ccc(OP(=O)(Nc2ccccn2)Oc2ccc(C)cc2)cc1`, the inhibition was inactive: 12.3%.

As for `COC(=O)c1cc2c(s1)N=C(c1ccccc1)N(C)P2(=O)N1CCOCC1` (centres undefined), the inhibition is inactive: -15.7%.

For `O=P(Nc1nc2ccccc2s1)(c1ccccc1)c1ccccc1`, the inhibition was inactive: -4.66%.

Take `O=P(Nc1ccccn1)(c1ccc(Br)cc1)c1ccc(Br)cc1`: the inhibition was inactive: -1.6%.

For `CN(C)C1(CNC(=O)c2ccc(Cl)c(S(N)(=O)=O)c2)CCCCC1`, the inhibition was inactive: -6.5%.

For `O=C(OC1CN2CCC1CC2)c1cccc(Cl)c1` (centres undefined), the inhibition is inactive: -14.5%.

As to `Nc1ccc([As](=O)(O)c2ccc([N+](=O)[O-])cc2)cc1`, the inhibition was inactive: 10.7%.

With `C(Cc1nn[nH]n1)Cc1nn[nH]n1`, the inhibition was inactive: -2.58%.

For `O=[As](O)(c1ccccc1)c1ccc(O)cc1`, the inhibition was inactive: 1.5%.

With `O=[N+]([O-])c1ccc(O)c(/C=N/Nc2ccc([N+](=O)[O-])cc2[N+](=O)[O-])c1`, the inhibition is inactive: 1.47%.

On to `CC(=O)NC(SC(=S)N(C)C)C(Cl)(Cl)Cl` (centres undefined), for which the inhibition was inactive: -2.78%.

Take `O=[N+]([O-])c1ncn(CCn2cnc([N+](=O)[O-])n2)n1`: the inhibition was inactive: -4.51%.

`c1nnnn1CCn1cnnn1`: the inhibition was inactive: -6.51%.

`CC(C)C(=O)NC(Sc1ccccc1)C(Cl)(Cl)Cl` (centres undefined): the inhibition was inactive: -3.19%.

Regarding `O=P(Nc1nccs1)(c1ccccc1)c1ccccc1`, the inhibition was inactive: -6.45%.

In the case of `CCc1nc2c(n1)c1c(non1O)c1c2no[n+]1[O-]`, the inhibition was inactive: -11.9%.

For `O=[N+]([O-])c1cc([N+](=O)[O-])c(CCNc2ccccc2)c([N+](=O)[O-])c1`, the inhibition is inactive: -11.2%.

On to `Cc1ccc(NP(=O)(Oc2ccccc2)Oc2ccccc2)nc1`, for which the inhibition was inactive: -9.43%.

As for `O=[N+]([O-])c1cccc2n[nH]nc12`, the inhibition is inactive: -12.9%.

For `CC(=O)N1C2C3N(C(C)=O)C1C1N(C(C)=O)C(C(N1C(C)=O)N3C(C)=O)N2C(C)=O`, the inhibition was inactive: -1.63%.

Turning to `COc1ccc(C2=NCC(CBr)S2)cc1` (centres undefined), the inhibition was inactive: -9.51%.

For `CC1CCN(C(=O)Oc2c(Cl)cc(Cl)c3cccnc23)CC1`, the inhibition is inactive: 6.99%.

`CN(C)C(=O)OCCc1n(C)cc[n+]1C`: the inhibition is inactive: -14.3%.

Take `CC(C)=N/N=C(\N)N[N+](=O)[O-]`: the inhibition was inactive: 5.16%.

Regarding `CCN(/C(=N/P(=O)(N1CCOCC1)N1CCOCC1)N1CCOCC1)c1ccc(OC)cc1`, the inhibition is inactive: -0.38%.

Regarding `C[N+]1=C2C=CC=CC=C2SC12C([N+](=O)[O-])=CC([N+](=O)[O-])=C[C-]2[N+](=O)[O-]` (centres undefined), the inhibition is inactive: 0.66%.

Regarding `Nc1ccc([As](=O)(O)c2ccc(N)cc2)cc1`, the inhibition is inactive: 1.43%.

On to `O=C(Nc1cc([As](=O)(O)O)ccc1O)c1ccccc1`, for which the inhibition is inactive: -3.52%.

On to `O=C(O)CNc1ccc([As](=O)(O)O)cc1`, for which the inhibition is inactive: -12.9%.

As to `O=[N+]([O-])c1cccc(NC2=NCC(CBr)S2)c1` (centres undefined), the inhibition is inactive: -2.36%.

Consider `O=[N+]([O-])c1ncn(CCn2ncnc2[N+](=O)[O-])n1`, for which the inhibition is inactive: 4.13%.

Turning to `CC(C)(C)C(=O)NC(Sc1ccncn1)C(Cl)(Cl)Cl` (centres undefined), the inhibition was inactive: -7.67%.

For the compound `Cc1ccc(NP(=O)(Oc2ccccc2F)Oc2ccccc2F)nc1`, the inhibition is inactive: -3.94%.

Consider `CCOP(=O)(Nc1ccccc1)OCC`, for which the inhibition was inactive: -11% and inactive: -11.1%.

Consider `Cc1cc(SC(NC(=O)c2ccc(F)cc2)C(Cl)(Cl)Cl)ncn1` (centres undefined), for which the inhibition is inactive: 1.76%.

With `O=P(Nc1nc2ccc(Cl)cc2s1)(c1ccccc1)c1ccccc1`, the inhibition is inactive: -6.92%.

Consider `O=C(O)c1ccccc1[As](=O)(O)O`, for which the inhibition is inactive: -8.4%.

As for `CC(=O)Nc1ccc([As](=O)(O)O)cc1`, the inhibition is inactive: -1.6%.

`Nc1cccc2ccc([As](=O)(O)O)cc12`: the inhibition was inactive: -0.07%.

With `CCN(N=Nc1nonc1N)c1nonc1N`, the inhibition is inactive: -10.6%.

Consider `O=[N+]([O-])c1cc([N+](=O)[O-])c(CCN2CCOCC2)c([N+](=O)[O-])c1`, for which the inhibition is inactive: -0.13%.

`Clc1ccc(Cl)c(NC2=NCC(CBr)S2)c1` (centres undefined): the inhibition is inactive: -12.3%.

In the case of `CN1CCCC(OC(=O)C(c2ccccc2)c2ccccc2)C1` (centres undefined), the inhibition was inactive: -15.4%.

Consider `Cc1ccc(OP(=O)(Nc2nccs2)Oc2ccc(C)cc2)cc1`, for which the inhibition is inactive: -14.5%.

Consider `COc1ccccc1OP(=O)(Nc1ccc(C)cn1)Oc1ccccc1OC`, for which the inhibition is active: 21.7%.

As for `Cc1ccc(N/C(=N/P(=O)(N2CCOCC2)N2CCOCC2)N2CCOCC2)cc1`, the inhibition was inactive: 5.85%.

As to `NC(=O)c1cc([N+](=O)[O-])cc([N+](=O)[O-])c1N`, the inhibition is inactive: -1.46%.

`Cc1c2non([O-])c-2c(C)[n+](=O)[n+]1[O-]`: the inhibition was inactive: -6.32%.

As for `O=C(NC(Sc1ccncn1)C(Cl)(Cl)Cl)c1ccccc1` (centres undefined), the inhibition was inactive: -0.67%.

Regarding `Oc1ccccc1CNc1ccccn1`, the inhibition was inactive: 1.47%.

With `CC(C)CC(=O)NC(Sc1ccc(Cl)cc1)C(Cl)(Cl)Cl` (centres undefined), the inhibition was inactive: -19.4%.

As for `Nc1cc(N)c2nonc2c1[N+](=O)[O-]`, the inhibition is inactive: -7.33%.

For orientation: inhibition means the relative decrease from the control value, in per cent.

Values taken from PubChem BioAssay AID1861 (The Scripps Research Institute Molecular Screening Center, 2009).
